Data on one compound can be found in ChEMBL document CHEMBL1138475, “Conformationally constrained fatty acid ethanolamides as cannabinoid and vanilloid receptor probes” (J Med Chem, 2009).

Protein sequences, listed by entry. Tags and fused reporters are not part of them.
UniProt P47746, whole entry: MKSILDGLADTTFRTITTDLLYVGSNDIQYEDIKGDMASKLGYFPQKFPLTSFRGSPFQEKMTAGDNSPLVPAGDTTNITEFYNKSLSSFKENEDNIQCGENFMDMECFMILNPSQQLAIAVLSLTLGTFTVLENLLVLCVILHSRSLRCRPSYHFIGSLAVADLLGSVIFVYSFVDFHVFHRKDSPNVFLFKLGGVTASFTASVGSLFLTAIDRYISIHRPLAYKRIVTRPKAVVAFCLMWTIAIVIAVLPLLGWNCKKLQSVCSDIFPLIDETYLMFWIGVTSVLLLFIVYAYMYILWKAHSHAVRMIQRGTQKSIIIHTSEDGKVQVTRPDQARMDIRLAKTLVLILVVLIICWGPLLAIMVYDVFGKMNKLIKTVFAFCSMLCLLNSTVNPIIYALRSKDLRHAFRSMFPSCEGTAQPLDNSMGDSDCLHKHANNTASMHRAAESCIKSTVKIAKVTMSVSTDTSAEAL
UniProt P34972, whole entry: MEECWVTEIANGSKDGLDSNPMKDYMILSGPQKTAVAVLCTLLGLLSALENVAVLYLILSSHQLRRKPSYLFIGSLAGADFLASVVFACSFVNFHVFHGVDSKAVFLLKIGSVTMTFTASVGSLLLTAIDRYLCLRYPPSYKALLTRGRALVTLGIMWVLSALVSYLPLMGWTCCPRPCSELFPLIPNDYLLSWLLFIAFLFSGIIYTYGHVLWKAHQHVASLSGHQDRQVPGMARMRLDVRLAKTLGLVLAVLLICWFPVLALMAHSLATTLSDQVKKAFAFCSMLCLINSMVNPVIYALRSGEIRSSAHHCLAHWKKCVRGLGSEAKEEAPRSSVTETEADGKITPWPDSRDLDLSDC

Structures are written as SMILES. pEC50, pKi: −log10 of the molar value.

One experiment has as its target Cannabinoid receptor 1 (Mus musculus, UniProt P47746). Nature of the experiment: Agonist activity at CB1 receptor expressed in mouse brain membrane by [35S]GTPgammaS binding assay. The class given is functional, cell membranes. Summed up:
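Mouse brain membranes (10 µg/mL) preincubated 30 min at 30 °C with adenosine deaminase 0.5 U/mL, in Tris buffer with MgCl2, EDTA, NaCl, DTT, 0.1% BSA, 0.1 nM [35S]GTPγS, 30 µM GDP; compounds 60 min at 30 °C. Nonspecific with 30 µM GTPγS. Filtration, scintillation counting. 0.1% DMSO vehicle. Basal subtracted; EC50 and Emax by sigmoid nonlinear regression.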

In a further experiment the target is Cannabinoid receptor 2 (Homo sapiens, UniProt P34972). The experiment can be described thus: Displacement of [3H]CP-55940 from human recombinant CB2 receptor expressed in HEK293 cell membrane. The class given is cell membranes. The procedure, abridged:
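Membranes from HEK-293 cells expressing human CB2 (Bmax 4.7 pmol/mg) incubated 90 min at 30 °C with 0.14 nM [3H]CP-55,940 and increasing test compound. Nonspecific binding with 10 µM WIN 55212-2. Ki from IC50 by Cheng-Prusoff; mean ± SEM, n ≥ 3.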
Background: Loss of bound radioactivity is the signal in a displacement assay; it reports binding, not function.

A word on the pEC50: it is the negative decadic logarithm of the EC50, by convention in mol/L. Usually pKi stands for the negative decadic logarithm of the Ki, by convention in mol/L.

Take `CCCCC/C=C\C/C=C\C/C=C\C/C=C\CCCC(=O)NCCO` [ANANDAMIDE]: the pEC50 on Cannabinoid receptor 1 was 6.44. Further, the pKi at Cannabinoid receptor 2 was 6.77.
